# Measured values: patent publication US7615555B2, “Piperidine derivatives as modulators of chemokine receptor CCR5” (AstraZeneca AB, priority 2004, dated 2009)
# Sequences of proteins named here, by UniProt entry; tags and fusion partners are left off.
# UniProt P51681, whole entry: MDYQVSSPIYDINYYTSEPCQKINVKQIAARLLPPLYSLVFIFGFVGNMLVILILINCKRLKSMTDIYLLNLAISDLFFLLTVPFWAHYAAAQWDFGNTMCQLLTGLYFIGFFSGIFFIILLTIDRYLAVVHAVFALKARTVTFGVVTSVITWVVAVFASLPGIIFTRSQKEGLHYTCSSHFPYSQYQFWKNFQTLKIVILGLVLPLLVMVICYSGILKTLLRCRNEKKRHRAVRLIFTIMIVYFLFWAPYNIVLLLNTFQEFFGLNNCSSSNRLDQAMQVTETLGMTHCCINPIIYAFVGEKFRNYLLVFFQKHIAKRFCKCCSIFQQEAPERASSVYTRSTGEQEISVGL
# Molecular target: recombinant human CCR5 receptor (Homo sapiens, UniProt P51681)
# Assay: in vitro radioligand binding assay: inhibition of MIP-1α binding
# Conditions: displacement of 0.1 nM iodinated MIP-1α; membranes from Chinese hamster ovary cells expressing recombinant human CCR5; scintillation proximity; average if tested more than once
# Description: The ability of compounds to inhibit the binding of MIP-1α was assessed by an in vitro radioligand binding assay. Membranes were prepared from Chinese hamster ovary cells which expressed the recombinant human CCR5 receptor. These membranes were incubated with 0.1 nM iodinated MIP-1α, scintillation proximity beads and various concentrations of the compounds of the invention in 96-well plates. The amount of iodinated MIP-1α bound to the receptor was determined by scintillation counting. Competition curves were obtained for compounds and the concentration of compound which displaced 50% of bound iodinated MIP-1α was calculated (IC50).
# In Table XII the results are presented as Pic50 values. A Pic50 value is the negative log (to base 10) of the IC50 result, so an IC50 of 1 μM (that is 1×10^−6M) gives a Pic50 of 6. If a compound was tested more than once then the data below is an average of the probative tests results.
row,SMILES,pIC50
1,Cc1nnc(C(C)C)n1C1CCN(CC[C@@H](c2cc(F)cc(F)c2)C2CCOCC2)CC1,7.2
2,CS(=O)(=O)c1ccc(Cc2noc(C3CCN(CCC(c4ccccc4)C4CCN(S(C)(=O)=O)CC4)CC3)n2)cc1 (centres unmarked),8.8
3,CS(=O)(=O)c1ccc2c(c1)ncn2C1CCN(CCC(c2ccccc2)N2CCN(c3ccc(F)cc3)CC2)CC1 (centres unmarked),7.4
4,CS(=O)(=O)N1CCC([C@@H](CCN2CCC(n3nnc4cc(C(F)(F)F)ccc43)CC2)c2cc(F)cc(F)c2)CC1,7.3
5,Cc1nnc(C(C)C)n1C1CC2CCC(C1)N2CCC(c1ccccc1)C1CCN(S(=O)(=O)C(F)(F)F)CC1 (centres unmarked),8.1
